## AlphaSeq binding of Ab-14 heavy chain variants to a spike HR2 peptide

Reference: Engelhart et al. 2022, doi:10.1038/s41597-022-01779-4. File: FLAb, binding data.

Target: peptide PDVDLGDISGINAS, taken from heptad repeat 2 (HR2) of SARS-CoV-2 spike.

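The parent was found by panning a naive human phage display library on the peptide. In library AAYL49, one, two or three CDR residues were substituted; doubles and triples were drawn at random. In AlphaSeq, yeast of one mating type display the scFv and yeast of the other type display the target. After mating in shaken culture at 30 °C for 16 h, diploids were selected and their barcode pairs sequenced. Read counts were normalised to the haploid input and turned into Kd by a linear fit to BCL2-family pairs of known affinity, for each replicate. There are three technical replicates.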

Ab-14 is the parent antibody, in scFv form: VH, then a (GGGGS)3 linker, then VL. The light chain is unchanged in all variants.
VH: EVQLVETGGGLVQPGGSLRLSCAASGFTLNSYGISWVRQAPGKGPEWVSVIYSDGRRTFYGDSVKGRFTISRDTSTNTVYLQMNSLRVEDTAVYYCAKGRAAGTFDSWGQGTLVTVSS
VL: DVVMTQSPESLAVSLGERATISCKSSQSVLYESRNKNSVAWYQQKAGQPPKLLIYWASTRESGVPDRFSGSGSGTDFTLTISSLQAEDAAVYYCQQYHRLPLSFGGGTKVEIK

Each variant is given by its three heavy chain CDRs, as the data file delimits them; those of the parent are GFTLNSYGIS, VIYSDGRRTFYGDSVK, GRAAGTFDS.
The read-out is the apparent dissociation constant on a log10 scale (nM): the lower, the stronger.
Averages over replicates are reported, and they cover detected replicates only.
"nd" marks a missing value. The strain was present, yet no cells mated with the target were sequenced in that replicate, which points to weak or no binding.
Background: pairings of library AAYL49 with three empty control strains gave a value in 15% of cases (median 4.06, 5th percentile 2.83). Values in that range, when seen in few replicates, are hard to tell from nonspecific mating. For each scFv, signals with the empty controls are counted beside the result.

GFTLNSYGIS, VIDSDGRRTFYGDSVE, GDAAGTFDS: nd, nd, nd (controls 3 of 9).
GFTLNSYGIS, VIYEDGRRTFYGKSVK, GYAAGTFDS: nd, 3.25, nd (controls 0 of 9).
GFGLNAYGIS, VICSDGRRTFYGDSVK, GRAAGTFDS: nd, 2.47, nd (controls 0 of 9).
GITLNSYGIS, VIYSDGRRVFYGDSVK, GRAAGTFFS: 2.99, 2.71, 2.65 (mean 2.79; controls 1 of 9).
GFTLNSYGIS, VIYSHGQRTFYGDSVT, GRAAGTFDS: nd, nd, nd (controls 1 of 9).
GFTLNSMGIS, VIYSDSRRTFYGDSVK, GRCAGTFDS: nd, 3.75, nd (controls 1 of 9).
GFTLNSYGIS, VIYSDGRRTFLGDSVK, GRAAGTFSS: 3.63, 4.26, 5.15 (mean 4.35; controls 3 of 9).
GFTLNSYGIS, VIYSDGRRQFYGDSVK, GRAEGTFDS: 2.82, nd, nd (controls 1 of 9).
GFTLNSYGIS, WIYSDGRTEFYGDSVK, GRAAGTFDS: nd, nd, 5.90 (controls 3 of 9).
GFTLNSYGIS, VIYSDGRRTTYGRSVK, GRAAGHFDS: nd, nd, nd (controls 1 of 9).
GFTLNSYCIS, VIYSDGRRTLYLDSVK, GRAAGTFDS: nd, nd, 3.35 (controls 1 of 9).
GFVLQSYGIS, VIYSYGRRTFYGDSVK, GRAAGTFDS: nd, nd, nd (controls 0 of 9).
GFTLNSYGIS, VIRSDGRRTFYGDSVK, GPAAGTFDW: nd, nd, nd (controls 1 of 9).
GFTLNSYGIS, VIYTGGRRTFYGDSVK, GRAAGTFLS: nd, 4.05, 4.53 (mean 4.29; controls 3 of 9).
GFTLNSYGIS, VIYADGRRTFGGDSCK, GRAAGTFDS: nd, nd, nd (controls 4 of 9).
GFTLQSYGIS, VIYSDGWRTFYGDSVK, GRAAGTFYS: nd, 5.04, nd (controls 4 of 9).
GPTLNSYAIS, VIYIDGRRTFYGDSVK, GRAAGTFDS: nd, nd, nd (controls 0 of 9).
GFTLNSYGIS, VIYSDGRRTVYGDSVK, GRAAGWFDD: nd, 3.81, nd (controls 0 of 9).
GFWLNSYGIS, VIYSDGRRTFYGDSVQ, ERAAGTFDS: 5.65, 4.00, nd (mean 4.82; controls 2 of 9).
GFWLNSYGIS, VIYSDGRRTFYGDSVK, GRAAGTFDS: 1.61, 1.68, 1.70 (mean 1.66; controls 2 of 9).
GFTLNGYGIS, VIVSLGRRTFYGDSVK, GRAAGTFDS: nd, nd, nd (controls 0 of 9).
GFTLNSYGIS, VIYSDGEATFYGDSVK, GRAAGTFLS: nd, nd, 5.55 (controls 1 of 9).
GFTLNSYGIS, VIYSDGRRTFYGRSYK, GRAAGTFDS: 4.19, 5.78, nd (mean 4.98; controls 6 of 9).
GFTLNSKGDC, VIYSDGRRTFYGDSVK, GRAAGTFDS: nd, 3.98, 4.71 (mean 4.34; controls 1 of 9).
GFTLNSYGIS, VIYSDGRRTFYGNSVK, GRAAGTAES: 0.91, 1.00, 0.94 (mean 0.95; controls 0 of 9).
GFTLESYGIS, IIYSDGRRTFYGDSVK, GRAAATFDS: nd, nd, nd (controls 0 of 9).
GFTLNSYGIS, VIYSDGRKTFYGDSVC, ARAAGTFDS: nd, nd, 4.57 (controls 3 of 9).
GFHLNSYGES, VIYSDGRRTFYGDSVK, GRAAGTFDF: nd, nd, nd (controls 0 of 9).
GSTLNSYGIS, VVYSDGRRTFYGDYVK, GRAAGTFDS: nd, 4.61, 4.40 (mean 4.51; controls 6 of 9).
GFTLNYTGIS, VIYSDGRRTFYGDSVK, GRAAFTFDS: nd, 3.99, nd (controls 0 of 9).

A selection of 4 entries from above:

{"CDR-H1": "GFTLNSYGIS", "CDR-H2": "VIYSDGRRTTYGRSVK", "CDR-H3": "GRAAGHFDS", "log10 Kd (nM) by replicate": "nd, nd, nd", "mean, log10 nM": "nd", "control signals": "1 of 9"}
{"CDR-H1": "GFTLNYTGIS", "CDR-H2": "VIYSDGRRTFYGDSVK", "CDR-H3": "GRAAFTFDS", "log10 Kd (nM) by replicate": "nd, 3.99, nd", "mean, log10 nM": "3.99", "control signals": "0 of 9"}
{"CDR-H1": "GFTLESYGIS", "CDR-H2": "IIYSDGRRTFYGDSVK", "CDR-H3": "GRAAATFDS", "log10 Kd (nM) by replicate": "nd, nd, nd", "mean, log10 nM": "nd", "control signals": "0 of 9"}
{"CDR-H1": "GFTLNSYGIS", "CDR-H2": "VIYADGRRTFGGDSCK", "CDR-H3": "GRAAGTFDS", "log10 Kd (nM) by replicate": "nd, nd, nd", "mean, log10 nM": "nd", "control signals": "4 of 9"}

Parent in this assay: reference entry 0.65, copy in this library 4.11 (one replicate of three).